Cneo AK release: Cryptococcus neoformans lysis via adenylate kinase release; C. neoformans lysis, adenylate kinase release luminescence, 4 h; normalised: neutral wells 0, clomiphene wells 100; lysis activity, % at 15 µM; 360,000 tested, 0.2% active; AID 651654;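 active means mean lysis activity across replicates of at least 80%, whatever share of replicates individually reach that level; inactive means mean lysis activity below 80%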
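Material – Cryptococcus neoformans yeast cells · Quantity – 5 × 10^6 yeast cells/mL · Buffer or medium – YPD medium · Compound – single dose · Timing – 4 h static compound exposure, 37 °C, read 1 h post-reagent · Signal – adenylate kinase release luminescence · Read-out basis – lysis from increased AK signal · Benchmarks – Clomiphene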
PDI inh: inhibitors of human protein disulfide isomerase; 350,000 tested, 0.052% active; P07237; inhibition, % at 10 µM; PDI insulin aggregation turbidity, A650, 90 min;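 active means mean inhibition across replicates of 30% or more, whatever share of single replicates reach that level; inconclusive means mean inhibition below 30% while every single replicate reaches 30%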
UUG fidelity: alters start codon recognition fidelity in yeast; AID 602363; activity score, % at 18.7 µM; 350,000 tested, 0.13% active; S. cerevisiae UUG-firefly luciferase reporter, luminescence/redox ratio;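 active means replicate mean at a twofold rise or more, about +100% in these data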;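 further: firefly luciferase made from a UUG start codon reports start codon fidelity; reporter light over untreated wells divided by growth signal over untreated wells; some hits fall short of that in this replicate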
ERp5 inh: blocks human ERp5 reductase activity on insulin; ERp5 insulin aggregation, absorbance 650 nm, 90 min; inhibition, % at 9.99 µM; 350,000 tested, 0.05% active;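 active means mean replicate inhibition above about 25%, with every replicate also reaching it, limit read from the data, passing the limit was not always enough; inconclusive means only one of those two criteria met; inactive means neither criterion met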
* = called active by the depositor; u = inconclusive; x = not tested or not shown; ! = repeats disagree. The list is not random: actives were taken first. Their share in the collection is about 0.34%.

#1 O=C(C[C@@H]1CC[C@@H]2[C@H](COC[C@H](O)CN2C(=O)Nc2cc(Cl)cc(Cl)c2)O1)N1CCCCC1
#2 CO[C@@H](CN(C)Cc1ccc2c(c1)OCO2)[C@@H](C)CN(C(=O)c1ccccc1)[C@H](C)CO
#3 C[C@H]1CN([C@@H](C)CO)C(=O)c2cccc(NC(=O)Nc3ccc(F)cc3)c2O[C@H]1CN(C)C(=O)Nc1ccc2c(c1)OCO2
#4 C[C@H]1CN([C@@H](C)CO)C(=O)Cc2cc(NS(C)(=O)=O)ccc2O[C@@H]1CN(C)Cc1ccc(Cl)c(Cl)c1
#5 C[C@H]1CN([C@@H](C)CO)C(=O)Cc2cc(NS(=O)(=O)c3cn(C)cn3)ccc2O[C@@H]1CN(C)Cc1ccc(Oc2ccccc2)cc1
#6 C[C@@H]1CN([C@@H](C)CO)C(=O)Cc2cc(NS(=O)(=O)c3ccccc3)ccc2O[C@@H]1CN(C)Cc1ccc(Cl)c(Cl)c1
#7 C[C@@H]1CN([C@@H](C)CO)C(=O)c2cc(NS(=O)(=O)c3ccccc3)ccc2O[C@H]1CN(C)C(=O)Nc1ccc2c(c1)OCO2
#8 C[C@@H]1CN([C@@H](C)CO)C(=O)c2cccc(NS(C)(=O)=O)c2O[C@@H]1CN(C)C(=O)Nc1ccc2c(c1)OCO2
#9 C[C@H]1CN([C@@H](C)CO)C(=O)c2cccc(NS(C)(=O)=O)c2O[C@H]1CN(C)C(=O)Nc1ccc2c(c1)OCO2
#10 C[C@@H]1CN([C@H](C)CO)C(=O)c2cccc(NS(=O)(=O)c3ccccc3)c2O[C@H]1CN(C)C(=O)Nc1ccc2c(c1)OCO2
compound no.,1,2,3,4,5,6,7,8,9,10
Cneo AK release,-5,96*,-2,112*!,110*,85*,52,88*,114*,3
PDI inh,x,x,x,16,x,x,x,x,x,x
UUG fidelity,5,x,8,9,14,17,6,35,28,13
ERp5 inh,-9,u,2,-4,0,0,58*,2,5,-3

#11 C[C@@H]1CN([C@H](C)CO)C(=O)c2cccc(NC(=O)Nc3ccccc3)c2O[C@H]1CN(C)C(=O)Nc1ccccc1
#12 CCC(=O)N1[C@@H]2CN(S(=O)(=O)c3ccccc3)c3ccccc3[C@@H]2[C@@H]1CO
#13 CC(C)NC(=O)N(C)C[C@H]1Oc2ccc(NC(=O)C3CCCCC3)cc2CC(=O)N([C@H](C)CO)C[C@H]1C
#14 CC(C)NC(=O)Nc1cccc2c1O[C@H](CN(C)C)[C@H](C)CN([C@H](C)CO)C2=O
#15 CC(C)NC(=O)Nc1cccc2c1O[C@@H](CN(C)C(=O)Nc1ccccc1)[C@@H](C)CN([C@@H](C)CO)C2=O
#16 CC(C)NC(=O)Nc1cccc2c1O[C@H](CN(C)C(=O)Nc1ccccc1)[C@H](C)CN([C@@H](C)CO)C2=O
#17 CNC[C@H]1Oc2c(N)cccc2C(=O)N([C@@H](C)CO)C[C@H]1C
#18 O=C(Nc1cccc(F)c1)N1CCCCN2[C@H](C1)[C@H](c1ccc(-c3ccccc3F)cc1)[C@@H]2CO
#19 CC(=O)c1sc(NC(=O)C2(F)C(F)(F)C(F)(F)C(F)(F)C(F)(F)C2(F)F)nc1C
#20 CC(=O)c1sc(NC(=O)C=C(C)C)nc1C
compound no.,11,12,13,14,15,16,17,18,19,20
Cneo AK release,-8,-3,-8,100*,103*,5,x,1,136*,3
PDI inh,x,x,x,x,x,x,x,x,-4,8
UUG fidelity,-5,-4,5,x,22,4,x,-1,-9,-15
ERp5 inh,-3,-2,-4,-2,1,-1,86*,4,2,x

Profiles as entered above. Screens in order: Cneo AK release, PDI inh, UUG fidelity, ERp5 inh
CNC[C@H]1Oc2c(N)cccc2C(=O)N([C@@H](C)CO)C[C@H]1C is entered as x, x, x, 86*
C[C@@H]1CN([C@H](C)CO)C(=O)c2cccc(NC(=O)Nc3ccccc3)c2O[C@H]1CN(C)C(=O)Nc1ccccc1 is entered as -8, x, -5, -3

(next part)
#21 CCCNC(=O)N(C)C[C@@H]1Oc2ncc(C#CC3CCCCC3)cc2C(=O)N([C@H](C)CO)C[C@H]1C
#22 CCCNC(=O)N(C)C[C@H]1Oc2ncc(C#CC3CCCCC3)cc2C(=O)N([C@@H](C)CO)C[C@@H]1C
#23 CCCNC(=O)N(C)C[C@@H]1Oc2ncc(C#CC3CCCCC3)cc2C(=O)N([C@H](C)CO)C[C@@H]1C
#24 C[C@@H]1CN([C@H](C)CO)C(=O)Cc2cc(NS(=O)(=O)c3ccc(F)cc3)ccc2O[C@@H]1CN(C)S(=O)(=O)c1ccccc1
#25 COC1=C(Br)C(=O)c2ncccc2C1=O
#26 COC(=O)[C@]1(C)N[C@H](CN(C)S(=O)(=O)c2ccc(OC(F)(F)F)cc2)[C@@H]2C(=O)N(C)C(=O)[C@@H]21
#27 CC=Cc1ccc2n(c1=O)C[C@@H]1[C@@H](CO)[C@H](C(=O)N3CCc4ccccc4C3)N(C(=O)C3CC3)[C@H]21 (mixture of isomers)
#28 CN1[C@H](C(=O)N2CCc3ccccc3C2)[C@@H](CO)[C@@H]2Cn3c(ccc(-c4cccnc4)c3=O)[C@@H]21
#29 CNC[C@@H]1Oc2cc(C#CC3CCCC3)ccc2S(=O)(=O)N([C@@H](C)CO)C[C@H]1C
#30 O=C(NCc1nc2ccccc2[nH]1)C1=C[C@H](C2CC2)C[C@H](OCc2ccc(CO)cc2)O1
compound no.,21,22,23,24,25,26,27,28,29,30
Cneo AK release,2,109*,106*,0,x,2,97*,104*,-2,81*!
PDI inh,x,x,x,x,47*,-3,x,x,x,1
UUG fidelity,24,38,51,7,x,1,x,x,5,-2
ERp5 inh,2,-2,10,3,7,34*,-2,-3,-1,-7

#31 O=C(NCc1nc2ccccc2[nH]1)C1=C[C@@H](C2CC2)C[C@@H](OCc2ccc(CO)cc2)O1
#32 CO[C@H]1CN(C)C(=O)c2cc(NC(=O)CC(F)(F)F)ccc2OC[C@@H](C)N(S(=O)(=O)c2cn(C)cn2)C[C@@H]1C
#33 CO[C@@H]1CN(C)C(=O)c2ccc(NC(=O)C3CCCC3)cc2OC[C@H](C)N(C(C)=O)C[C@H]1C
#34 C/C=C/c1ccc([C@@H]2[C@@H](C#N)N(S(=O)(=O)c3cccc(F)c3)[C@@H]2CO)cc1
#35 O=C1C=CC2(C=C1)O[C@H](Cc1ccccc1)[C@@H](Cc1ccccc1)O2
#36 O=C1Nc2ccccc2C1Cc1ccccc1 (stereo unspecified)
#37 COc1ccc(C[C@@H]2OC3(C=CC(=O)C=C3)O[C@H]2Cc2ccc(OC)cc2)cc1
#38 CCN(C(=O)c1cn(C)c(=O)c2cc(OC)c(OC)cc12)c1cc(C)ccc1C
#39 COc1cc(OC)c(N(C)C(=O)c2cn(C)c(=O)c3cc(OC)c(OC)cc23)cc1Cl
#40 CC(C)NC(=O)NCC[C@@H]1CC[C@@H](NC(=O)CN(C)C)[C@@H](CO)O1
compound no.,31,32,33,34,35,36,37,38,39,40
Cneo AK release,-17,x,5,109*,x,x,x,1,127*,97*
PDI inh,-2,x,x,x,44*,9,67*,7,-2,x
UUG fidelity,-8,x,4,x,x,x,x,-3,12,17
ERp5 inh,-2,9,-1,5,3,2,x,x,-2,-2

#41 CC(C)NC(=O)NCC[C@H]1CC[C@H](NC(=O)CN(C)C)[C@H](CO)O1
#42 CN(C)CC(=O)N[C@H]1CC[C@@H](CCNC(=O)C2CCC2)O[C@H]1CO
#43 Cc1ccc(CN(C)C[C@@H]2OCc3cn(nn3)CCCC(=O)N([C@H](C)CO)C[C@@H]2C)cc1
#44 COc1ccc(CN(C)C[C@H]2Oc3ccc(NC(=O)C4CC4)cc3C(=O)N([C@@H](C)CO)C[C@@H]2C)cc1
#45 O=C(CCl)Nc1ccccc1Sc1ccc(Cl)cc1
#46 CC(=O)N1CCN(CC(=O)Nc2ccccc2Sc2ccc(Cl)cc2)CC1
#47 CC(C)Sc1nnc([C@H](Cc2c[nH]c3ccccc23)NC(=O)OC(C)(C)C)o1
compound no.,41,42,43,44,45,46,47
Cneo AK release,102*,0,2,-1,-4,x,-1
PDI inh,x,x,x,x,50*,8,44*
UUG fidelity,27,-3,0,1,-7,x,-7
ERp5 inh,-2,-12,5,9,x,0,x

Ordered by count of non-hydrogen atoms (high to low): some entries from above.
#44 COc1ccc(CN(C)C[C@H]2Oc3ccc(NC(=O)C4CC4)cc3C(=O)N([C@@H](C)CO)C[C@@H]2C)cc1
#43 Cc1ccc(CN(C)C[C@@H]2OCc3cn(nn3)CCCC(=O)N([C@H](C)CO)C[C@@H]2C)cc1
#41 CC(C)NC(=O)NCC[C@H]1CC[C@H](NC(=O)CN(C)C)[C@H](CO)O1
compound no.,44,43,41
Cneo AK release,-1,2,102*
PDI inh,x,x,x
UUG fidelity,1,0,27
ERp5 inh,9,5,-2
